{"source": "paper PMC7496650", "about": "“Enantiomerically Pure Quinoline‐Based κ‐Opioid Receptor Agonists: Chemoenzymatic Synthesis and Pharmacological Evaluation” (2020)", "key": {"KOR [1]": {"test_system": "KOR", "conditions": "read-out: EC50 (KOR agonist); cited from earlier work"}, "KOR [2]": {"test_system": "KOR", "conditions": "read-out: K i (KOR); cited from earlier work"}, "EAE": {"test_system": "EAE", "conditions": "cited from earlier work"}, "KOR [3]": {"target": "KOR (Cavia porcellus, UniProt P41144)", "assay": "KOR assay: competitive radioligand binding with [^3H]U‐69,593", "conditions": "read-out: K i±SEM KOR [^3H]U‐69,593; guinea pig brain membrane preparations"}, "human macrophages": {"test_system": "human macrophages", "assay": "LPS‐activated human macrophages, flow cytometry", "conditions": "activated human macrophages (LPS 12 h), compound 1 μM, 48 h, vs control"}, "σ2 receptor": {"target": "σ2 receptor (Rattus norvegicus, UniProt Q5U3Y7)", "assay": "σ2 receptor assay: radioligand binding with [^3H]DTG", "conditions": "test compound concentration of 1 μM; rat liver membrane preparations"}, "DOR [4]": {"target": "T1, DOR (Rattus norvegicus, UniProt P33533)", "assay": "DOR assay: competitive radioligand binding with [^3H]DPDPE", "conditions": "test compound concentration of 1 μM; rat brain membrane preparations"}, "human CD4^+ T cells": {"test_system": "human CD4^+ T cells", "assay": "anti‐CD3/anti‐CD28 activated human CD4^+ T cells, flow cytometry"}, "mouse CD4^+ T cells": {"test_system": "mouse CD4^+ T cells", "assay": "anti‐CD3/anti‐CD28 activated mouse CD4^+ T cells, flow cytometry", "conditions": "mouse T cell cultures, 1 μM, Figure 7F"}, "σ1 receptor [5]": {"target": "T2, σ1 receptor (Cavia porcellus, UniProt Q60492)", "assay": "σ1 receptor assay: radioligand binding with [^3H]‐(+)‐Pentazocine", "conditions": "test compound concentration of 1 μM; guinea pig brain membrane preparations"}, "DOR [6]": {"target": "T1, DOR", "conditions": "read-out: K i±SEM DOR [^3H]DPDPE; rat brain membrane preparations; cited from earlier work"}, "σ1 receptor [7]": {"target": "T2, σ1 receptor", "conditions": "test compound concentration of 1 μM; guinea pig brain; cited from earlier work"}, "[8]": {"test_system": "mouse and human immune cell subsets", "conditions": "different mouse and human immune cell subsets; cited from earlier work"}, "MOR": {"target": "MOR (Cavia porcellus, UniProt A0ACM8Q262)", "conditions": "read-out: K d value (MOR assay radioligand); cited from earlier work"}, "[9]": {"conditions": "activated human CD4^+ T cells, compound 1 μM, 48 h"}}, "note": "Like-named read-outs stand apart in the source and are kept apart here."}
{"compound": "COC(=O)N1CCN(C(=O)Cc2ccc(Cl)c(Cl)c2)[C@@H]2[C@@H](N3CCCC3)CCC[C@@H]21", "values": [{"measurement": "EC50", "setting": "KOR [1]", "result": 2, "unit": "nM"}]}
{"compound": "CN(C(=O)Cc1ccc(Cl)c(Cl)c1)[C@H]1CCCC[C@@H]1N1CCCC1", "values": [{"measurement": "Ki", "setting": "KOR [2]", "result": 0.34, "unit": "nM"}, {"measurement": "symptoms of EAE", "setting": "EAE", "result": "alleviated the symptoms of EAE"}, {"measurement": "Ki", "setting": "KOR [3]", "result": 0.34, "unit": "nM"}]}
{"compound": "O=C(Cc1ccc(Cl)c(Cl)c1)N1CCC[C@@H]2CCC[C@@H](N3CCCC3)[C@@H]21", "values": [{"measurement": "numbers of cells expressing CD86, IL‐6 and TNF‐α", "setting": "human macrophages", "result": "did not show anti‐inflammatory properties"}, {"measurement": "σ2 [^3H]DTG, inhibition of the radioligand binding", "setting": "σ2 receptor", "result": 12, "unit": "%"}, {"measurement": "DOR [^3H]DPDPE, inhibition of the radioligand binding", "setting": "DOR [4]", "result": 0, "unit": "%"}, {"measurement": "Ki", "setting": "KOR [3]", "result": 195, "unit": "nM"}, {"measurement": "numbers of Th1 cells (CD4^+ T cells expressing IFN‐γ and T‐bet)", "setting": "human CD4^+ T cells; [9]", "result": "did not observe reduced levels"}, {"measurement": "numbers of Th17 cells (CD4^+ T cells expressing IL‐17 and ROR‐c)", "setting": "human CD4^+ T cells; [9]", "result": "did not observe reduced levels"}, {"measurement": "cell numbers of Helios^+ and Helios^− Treg subsets compared to non‐stimulated controls", "setting": "human CD4^+ T cells; human T cell cultures, 1 μM, Figure 7C", "result": "did not detect any significant difference"}, {"measurement": "cell numbers of Helios^+ and Helios^− Treg subsets compared to non‐stimulated controls", "setting": "mouse CD4^+ T cells", "result": "did not detect any significant difference"}, {"measurement": "σ1 [^3H](+)‐pentazocine, inhibition of the radioligand binding", "setting": "σ1 receptor [5]", "result": 0, "unit": "%"}]}
{"compound": "O=C(Cc1ccc(Cl)c(Cl)c1)N1CCN(Cc2cn(CCF)nn2)[C@H]2CCC[C@H](N3CCCC3)[C@H]21", "values": [{"measurement": "Ki", "setting": "DOR [6]", "result": 413, "unit": "nM"}, {"measurement": "σ1 [^3H](+)‐pentazocine, inhibition of the radioligand binding", "setting": "σ1 receptor [7]", "result": 2, "unit": "%"}, {"measurement": "disease perpetuation in EAE", "setting": "EAE", "result": "significantly reduced disease perpetuation"}, {"measurement": "expression of classical activation markers, IFN‐γ, TNF‐α and IL‐17 A", "setting": "[8]", "result": "significantly decreased"}, {"measurement": "release of anti‐inflammatory cytokines like IL‐10", "setting": "[8]", "result": "increased the release"}]}
{"compound": "DAMGO", "values": [{"measurement": "Kd", "setting": "MOR", "result": 0.57, "unit": "nM"}]}
